According to PubChem BioAssay AID560 (The Scripps Research Institute Molecular Screening Center, 2006):
Only a part is listed here, and it is no random draw. Calls of active or inactive are those of the source.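 Rule for the calls: active = activation above the mean of all tested compounds plus 3 SD (cut at about 49% in these data); inactive = the rest.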

Amino acid sequences for entries named in this document (tags omitted). A change or cut given only in a name is not applied to a line headed by its entry.
UniProt P35398: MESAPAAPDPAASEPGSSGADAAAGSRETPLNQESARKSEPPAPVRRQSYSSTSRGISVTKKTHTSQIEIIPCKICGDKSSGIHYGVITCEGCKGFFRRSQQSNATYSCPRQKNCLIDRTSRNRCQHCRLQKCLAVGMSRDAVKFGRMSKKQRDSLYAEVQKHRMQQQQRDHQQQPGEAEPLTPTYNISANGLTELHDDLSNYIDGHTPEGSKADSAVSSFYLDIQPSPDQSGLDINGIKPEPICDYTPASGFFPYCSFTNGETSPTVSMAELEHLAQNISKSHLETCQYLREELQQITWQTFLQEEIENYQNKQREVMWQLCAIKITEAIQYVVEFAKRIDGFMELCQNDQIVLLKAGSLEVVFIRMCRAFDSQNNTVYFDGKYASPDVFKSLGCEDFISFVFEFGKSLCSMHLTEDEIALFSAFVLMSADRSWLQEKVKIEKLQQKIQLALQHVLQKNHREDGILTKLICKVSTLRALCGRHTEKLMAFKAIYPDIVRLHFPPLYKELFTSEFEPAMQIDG

target: Nuclear receptor ROR-alpha (Homo sapiens) (UniProt P35398); experiment: activators of orphan receptor RORA, primary screen, cell-based, luminescence (AID 560); conditions: CHO-K1 Gal4-RORA LBD luciferase reporter, at 10 µM, stronger effect = higher value, percent increase over mock-subtracted basal signal;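 note: 0% = DMSO-treated RORA cells and 100% = added signal equal to DMSO minus mock-transfected cells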

Row | SMILES | activation
1 | O=C(OC1CN2CCC1CC2)c1cccc(Cl)c1 (stereo not given) | inactive: 14.3%
2 | c1nnnn1CCn1cnnn1 | inactive: -11.1%
3 | O=P(Nc1nccs1)(c1ccccc1)c1ccccc1 | inactive: -22.8%
4 | O=P1(Nc2nc3ccc(Cl)cc3s2)COc2ccccc2O1 (stereo not given) | inactive: 10.9%
5 | COC(=O)c1cc2c(s1)N=C(c1ccccc1)N(C)P2(=O)N1CCOCC1 (stereo not given) | inactive: -28.1%
6 | Cc1c2non([O-])c-2c(C)[n+](=O)[n+]1[O-] | inactive: -25.5%
7 | CCc1nc2c(n1)c1c(non1O)c1c2no[n+]1[O-] | inactive: -26%
8 | O=C(COc1ccccc1)OC1CN2CCC1CC2 (stereo not given) | inactive: 28.6%
9 | COP1(=S)c2c(C)nn(CCC#N)c2N=C(c2ccc(F)cc2)N1C (stereo not given) | inactive: 4.8%
10 | O=C(OC1CN2CCC1CC2)C12CC3CC(CC(C3)C1)C2 (stereo not given) | inactive: 6.1%
11 | O=P(Nc1nccs1)(c1ccccc1)c1nc2ccccc2s1 (stereo not given) | inactive: -21.2%
12 | CCOP1(=S)c2c(C)nn(CCC#N)c2N=C(c2ccccc2F)N1C (stereo not given) | inactive: -2.9%
13 | CCOP1(=S)c2c(C)nn(CCC#N)c2N=C(c2ccc(F)cc2)N1C (stereo not given) | inactive: -14.8%
14 | Cc1cccc(OCC(=O)OC2CN3CCC2CC3)c1 (stereo not given) | inactive: -5.5%
15 | Clc1n[nH]nc1-c1nn[nH][15n]1 | inactive: -17.4%
16 | O=P1(Nc2ccccn2)COc2ccccc2OC1 | inactive: -7.5%
17 | Cc1nn(-c2ccccc2)c2c1P(=O)(N1CCOCC1)N(C)C(c1ccccc1)=N2 (stereo not given) | inactive: -4.2%
18 | Cc1ccc(OCC(=O)OC2CN3CCC2CC3)cc1 (stereo not given) | inactive: -11.9%
19 | O=P1(Nc2ccc(Br)cn2)COc2ccccc2OC1 | inactive: 9.5%
20 | O=P1(Nc2ncccn2)COc2ccccc2OC1 | inactive: -29.2%
